Measurements reported in PubChem BioAssay (NCI).
Some of these compounds have results that are not shown, active ones among them.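 These data come from cells grown in 96-well plates and exposed to compound for 48 hours at five concentrations. At the TGI there is no net growth.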

Experiments:
Assay in all cases: NCI anticancer screen, dose series, 48 h
786-0 renal = test system: 786-0 renal
A498 renal = test system: A498 renal
A549 NSCLC = test system: A549 NSCLC
ACHN renal = test system: ACHN renal
BT-549 breast = test system: BT-549 breast
CAKI-1 renal = test system: CAKI-1 renal
CCRF-CEM leukemia = test system: CCRF-CEM leukemia
COLO 205 colon = test system: COLO 205 colon
DU-145 prostate = test system: DU-145 prostate
EKVX NSCLC = test system: EKVX NSCLC
HCC-2998 colon = test system: HCC-2998 colon
HCT-116 colon = test system: HCT-116 colon
HCT-15 colon = test system: HCT-15 colon
HL-60(TB) leukemia = test system: HL-60(TB) leukemia
HOP-62 NSCLC = test system: HOP-62 NSCLC
HOP-92 NSCLC = test system: HOP-92 NSCLC
HS 578T breast = test system: HS 578T breast
HT29 colon = test system: HT29 colon
IGROV1 ovarian = test system: IGROV1 ovarian
K-562 leukemia = test system: K-562 leukemia
KM12 colon = test system: KM12 colon
LOX IMVI melanoma = test system: LOX IMVI melanoma
M14 melanoma = test system: M14 melanoma
MALME-3M melanoma = test system: MALME-3M melanoma
MCF7 breast = test system: MCF7 breast
MDA-MB-231 breast = test system: MDA-MB-231 breast
MDA-MB-435 = test system: MDA-MB-435
MDA-N = test system: MDA-N
MOLT-4 leukemia = test system: MOLT-4 leukemia
NCI-H226 lung = test system: NCI-H226 lung
NCI-H23 lung = test system: NCI-H23 lung
NCI-H460 lung = test system: NCI-H460 lung
NCI-H522 lung = test system: NCI-H522 lung
NCI/ADR-RES ovarian = test system: NCI/ADR-RES ovarian
OVCAR-3 ovarian = test system: OVCAR-3 ovarian
OVCAR-4 ovarian = test system: OVCAR-4 ovarian
OVCAR-5 ovarian = test system: OVCAR-5 ovarian
OVCAR-8 ovarian = test system: OVCAR-8 ovarian
PC-3 prostate = test system: PC-3 prostate
RPMI-8226 leukemia = test system: RPMI-8226 leukemia
RXF 393 renal = test system: RXF 393 renal
SF-268 CNS = test system: SF-268 CNS
SF-295 CNS = test system: SF-295 CNS
SF-539 CNS = test system: SF-539 CNS
SK-MEL-2 melanoma = test system: SK-MEL-2 melanoma
SK-MEL-28 melanoma = test system: SK-MEL-28 melanoma
SK-MEL-5 melanoma = test system: SK-MEL-5 melanoma
SK-OV-3 ovarian = test system: SK-OV-3 ovarian
SN12C renal = test system: SN12C renal
SNB-19 CNS = test system: SNB-19 CNS
SNB-75 CNS = test system: SNB-75 CNS
SR leukemia = test system: SR leukemia
SW-620 colon = test system: SW-620 colon
T-47D breast = test system: T-47D breast
TK-10 renal = test system: TK-10 renal
U251 CNS = test system: U251 CNS
UACC-257 melanoma = test system: UACC-257 melanoma
UACC-62 melanoma = test system: UACC-62 melanoma
UO-31 renal = test system: UO-31 renal

Measured: TGI

CCC#CC(O)(C(=O)OC1CC2CCC(C1)N2C)c1ccccc1 (centres undefined)
> 100 µM: all assays above
